# Results from ChEMBL document CHEMBL1143135, “A structure-activity relationship study and combinatorial synthetic approach of C-terminal modified bifunctional peptides that are delta/mu opioid receptor agonists and neurokinin 1 receptor antagonists” (J Med Chem, 2008).
# By UniProt entry, the sequences of proteins in these tests, tags left out.
# UniProt P41143, whole entry, looked up: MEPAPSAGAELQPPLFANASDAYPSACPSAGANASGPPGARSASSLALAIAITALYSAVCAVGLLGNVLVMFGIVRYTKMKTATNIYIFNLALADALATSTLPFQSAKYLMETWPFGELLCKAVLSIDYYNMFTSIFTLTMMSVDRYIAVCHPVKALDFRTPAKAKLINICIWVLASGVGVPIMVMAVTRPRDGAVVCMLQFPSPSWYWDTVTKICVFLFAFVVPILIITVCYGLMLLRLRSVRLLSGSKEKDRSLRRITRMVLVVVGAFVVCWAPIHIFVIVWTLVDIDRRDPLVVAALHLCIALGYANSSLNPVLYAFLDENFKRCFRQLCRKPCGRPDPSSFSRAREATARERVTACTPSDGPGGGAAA
# Legend:
# [1] = Ratio of Ki for human delta opioid receptor over Ki for rat mu opioid receptor
# [2] = target: Delta-type opioid receptor (Homo sapiens) (UniProt P41143); experiment: Agonist activity at human delta opioid receptor by [35S]GTP-gamma-S binding assay; format: functional
# How it was run: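 Membranes (10 µg) from HN9.10 cells transfected with rMOR or hDOR, incubated 90 min at 30 °C with test drug 1×10^-12 to 1×10^-5 M in duplicate. Buffer: 50 mM HEPES pH 7.4, 30 µM GDP, 5 mM MgCl2, 100 mM NaCl, 0.1 nM [35S]GTPγS. Filtration, then scintillation counting. Nonspecific binding defined with 10 µM GTPγS. EC50 from nonlinear regression, two experiments; Emax as net/basal ×100.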
structure (smiles),measurement,setting,value
C[C@@H](NC(=O)[C@@H](N)Cc1ccc(O)cc1)C(=O)NCC(=O)N[C@@H](Cc1ccccc1)C(=O)NNC(=O)[C@H](Cc1ccccc1)NC(=O)CNC(=O)[C@@H](C)NC(=O)[C@@H](N)Cc1ccc(O)cc1,Ratio Ki,[1],0.54
same,logEC50,[2],-9
